# Patent US8389557B2, “Triazole derivatives useful as Axl inhibitors” (Rigel Pharmaceuticals, Inc., priority 2005, dated 2013)
# By UniProt entry, the sequences of proteins in these tests, tags left out. Residues count along the entry.
# UniProt P30530, 26-894 limits assumed: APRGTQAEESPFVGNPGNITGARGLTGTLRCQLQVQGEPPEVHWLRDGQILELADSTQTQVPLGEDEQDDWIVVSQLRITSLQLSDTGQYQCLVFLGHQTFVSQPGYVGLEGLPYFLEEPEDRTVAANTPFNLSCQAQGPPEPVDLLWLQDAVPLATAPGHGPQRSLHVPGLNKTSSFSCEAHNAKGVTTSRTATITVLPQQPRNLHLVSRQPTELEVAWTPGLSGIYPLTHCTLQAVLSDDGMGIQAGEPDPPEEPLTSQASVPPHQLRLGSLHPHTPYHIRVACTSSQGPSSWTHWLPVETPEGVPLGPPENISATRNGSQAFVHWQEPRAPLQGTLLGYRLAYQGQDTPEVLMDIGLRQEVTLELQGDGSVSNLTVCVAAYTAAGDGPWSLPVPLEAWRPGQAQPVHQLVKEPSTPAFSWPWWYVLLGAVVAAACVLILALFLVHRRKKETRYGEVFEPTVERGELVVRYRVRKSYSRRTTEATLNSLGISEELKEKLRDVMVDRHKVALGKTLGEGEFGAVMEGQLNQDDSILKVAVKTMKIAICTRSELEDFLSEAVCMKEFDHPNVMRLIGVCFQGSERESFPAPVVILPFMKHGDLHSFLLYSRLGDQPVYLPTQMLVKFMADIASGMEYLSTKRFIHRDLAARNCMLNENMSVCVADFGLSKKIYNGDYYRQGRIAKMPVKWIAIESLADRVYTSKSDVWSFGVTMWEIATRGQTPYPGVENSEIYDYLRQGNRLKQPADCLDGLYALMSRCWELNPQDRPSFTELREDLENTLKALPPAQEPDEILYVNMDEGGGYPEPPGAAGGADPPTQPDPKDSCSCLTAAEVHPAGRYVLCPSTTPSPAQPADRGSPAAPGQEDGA
# Target: Axl (Homo sapiens, UniProt P30530)
# Test: Phospho-Akt in-cell Western assay (inhibition of Axl activity)
# Details: Table 3; Hela cells, Axl antibody cross-linking stimulation, phospho-Akt chemiluminescence
# Procedure: The compounds of the invention were tested in the following assay for their ability to inhibit Axl activity.
# Phospho-Akt in-Cell Western Assay […]
smiles,measurement,value
Nc1nc(Nc2ccc(OCCN3CCCC3)cc2)nn1C(=O)c1ccc2c(c1)CCO2,pIC50,> 6.00

# pIC50: −log10 of the molar value.
